From US20260249027A1, “METERED DOSE INHALERS AND HIGH-DOSE SUSPENSIONS” (Kindeva Drug Delivery L.P., priority 2023, published 2026)

Test: Through life dose consistency of salbutamol sulfate pMDI suspensions (USP <601>, apparatus A)
Assay type: physicochemical
[1] = nominal ex-valve 0.5 mg/act, HFA-152a
[2] = nominal ex-valve 0.5 mg/act, HFO-1234ze(E)
[3] = nominal ex-valve 1.0 mg/act, HFA-152a
[4] = nominal ex-valve 1.0 mg/act, HFO-1234ze(E)
[5] = nominal ex-valve 2.0 mg/act, HFA-152a
[6] = nominal ex-valve 2.0 mg/act, HFO-1234ze(E)

through unit life ex-actuator delivered dose consistency (HFA-152a or HFO-1234ze(E)): relatively consistent | EoL mean delivered dose [1]: 308.5 μg/act | MoL mean delivered dose [1]: 307.7 μg/act | SoL mean delivered dose [1]: 310.1 μg/act | TL mean delivered dose [1]: 308.8 μg/act | EoL mean delivered dose [2]: 288.5 μg/act | MoL mean delivered dose [2]: 289.8 μg/act | SoL mean delivered dose [2]: 309.9 μg/act | TL mean delivered dose [2]: 296.1 μg/act | EoL mean delivered dose [3]: 664.3 μg/act | MoL mean delivered dose [3]: 634.3 μg/act | SoL mean delivered dose [3]: 637.8 μg/act | TL mean delivered dose [3]: 645.5 μg/act | EoL mean delivered dose [4]: 705.1 μg/act | MoL mean delivered dose [4]: 584.2 μg/act | SoL mean delivered dose [4]: 477.0 μg/act | TL mean delivered dose [4]: 588.8 μg/act | EoL mean delivered dose [5]: 1631.7 μg/act | MoL mean delivered dose [5]: 1097.0 μg/act | SoL mean delivered dose [5]: 1137.8 μg/act | TL mean delivered dose [5]: 1190.9 μg/act | EoL mean delivered dose [6]: 1398.8 μg/act | MoL mean delivered dose [6]: 1232.6 μg/act | SoL mean delivered dose [6]: 1097.1 μg/act | TL mean delivered dose [6]: 1223.3 μg/act
Substance: salbutamol sulfate
